Patent publication US9416132B2, “Substituted imidazo[1,2-b]pyridazines as protein kinase inhibitors” (Tolero Pharmaceuticals, Inc., priority 2011, dated 2016)

By UniProt entry, the sequences of proteins in these tests, tags left out.
UniProt P11309, whole entry: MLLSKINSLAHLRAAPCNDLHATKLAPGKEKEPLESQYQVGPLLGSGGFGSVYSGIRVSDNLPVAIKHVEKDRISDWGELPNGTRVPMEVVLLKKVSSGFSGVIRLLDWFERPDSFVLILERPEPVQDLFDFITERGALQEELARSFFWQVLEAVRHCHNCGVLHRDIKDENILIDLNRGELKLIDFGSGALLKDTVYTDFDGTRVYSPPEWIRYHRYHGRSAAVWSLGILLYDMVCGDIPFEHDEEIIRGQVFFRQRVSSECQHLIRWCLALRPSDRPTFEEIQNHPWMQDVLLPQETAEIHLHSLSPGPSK

Target: PIM-1 (Homo sapiens (Human), UniProt P11309)
Assay: Pim-1 kinase inhibition assay (Promega Kinase-Glo)
Assay type: biochemical
Details: Table IV, read-out: Compound IC50 on Pim1

CO[C@H]1CC[C@H](Nc2ccc3ncc(-c4cccc(OC(F)(F)F)c4)n3n2)CC1 [Compound 8-11, 4-(trans-Methoxycyclohexyl)-3-(3-(trifluoromethoxy)phenyl)imidazo[1,2-b]pyridazin-6-amine]
IC50: 8 nM
